Earlier results in patent US20220280614A1, “Premixed Ultra-Stable Single-Chain Insulin Analogue Formulations” (CASE WESTERN RESERVE UNIVERSITY, priority 2019, published 2022).

Conditions: cited from earlier work

In the case of Insulin, the “increase in degradation rate for each 10° C. increment in temperature above 25° C.” value is listed as at least 10 fold.
